Laboratory results as given in US6855687B2, “Stimulation of cartilage growth with agonists of the non-proteolytically activated thrombin receptor” (The Board of Regents The University of Texas System, priority 2000, dated 2005).

What was measured:
[1] = target: high affinity thrombin binding sites on rat articular chondrocytes (rat); assay: 125I-thrombin binding to cultured rat chondrocytes, Scatchard analysis, three experiments
[2] = target: very high affinity thrombin binding sites on rat articular chondrocytes (rat); assay: as above
thrombin receptor = assay: Specific binding of 125I thrombin to rat chondrocytes (Scatchard analysis); conditions: 230,000 sites, read-out: affinity of high affinity sites
Protocol: Primary cultures of rat articular chondrocytes were isolated and prepared for in vitro analysis using established methods (see Kuettner, K E., et.al., J. Cell Biology 93: 743-750, 1982). Briefly, cartilage pieces were dissected from the shoulder of rats and the pieces were digested with trypsin for one hour and with collagenase for three hours in tissue culture medium (DMEM) at 37 C. with stirring. The cells were plated in flasks at high density (50,000 cells/cm sq.) and were culture in DMEM containing antibiotics an ascorbic acid at 37° C. in an atmosphere of 5% CO2.
The specific binding of ^125I thrombin to chondrocytes was carried out using established thrombin receptor binding assays as disclosed in U.S. Pat. No. 5,352,664 and Carney, D H and Cunningham, DD, Cell 15:1341-1349, 1978. Briefly, highly purified human thrombin was iodinated and added to cultures of chondrocytes with or without unlabeled thrombin to correct for nonspecific binding. By incubating cells with different concentrations of labeled thrombin and measuring the amount of thrombin bound to cells and the amount of free thrombin in the medium it is possible to estimate the number of receptors per cell and the affinity of thrombin for that binding site.

## highly purified human thrombin, iodinated (125I thrombin) (from UniProt P00734 44-622; P00734 44-622) (enzyme)
[1]
  Kd: 27 nM
  binding sites per cell (sites per cell): 230000
[2]
  Kd: 0.1 nM
  binding sites per cell (sites per cell): 3000

## thrombin
Thrombin receptor
  Kd: 27 nM and ~27 nM

Where “and” joins values, the source holds several entries; their conditions need not be identical. Identical values can stand only once.
